Measured values reported in paper PMC5947877 (Phytomedicine : international journal of phytotherapy and …, 2017).

Protein sequences, listed by entry. Tags and fused reporters are not part of them.
UniProt P21397, whole entry: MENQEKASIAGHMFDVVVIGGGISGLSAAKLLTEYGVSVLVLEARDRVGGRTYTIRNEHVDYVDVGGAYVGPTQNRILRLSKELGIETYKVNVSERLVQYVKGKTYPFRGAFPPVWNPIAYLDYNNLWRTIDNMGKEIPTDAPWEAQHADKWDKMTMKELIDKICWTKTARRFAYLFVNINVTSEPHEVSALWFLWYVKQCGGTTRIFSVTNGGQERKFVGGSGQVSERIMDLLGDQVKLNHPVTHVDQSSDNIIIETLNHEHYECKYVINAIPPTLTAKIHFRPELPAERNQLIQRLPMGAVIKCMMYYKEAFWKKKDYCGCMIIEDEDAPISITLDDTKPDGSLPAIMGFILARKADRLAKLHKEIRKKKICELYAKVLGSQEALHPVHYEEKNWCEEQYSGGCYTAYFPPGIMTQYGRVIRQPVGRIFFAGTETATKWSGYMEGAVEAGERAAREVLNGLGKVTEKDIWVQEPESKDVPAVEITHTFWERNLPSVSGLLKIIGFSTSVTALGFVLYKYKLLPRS
UniProt P27338, whole entry: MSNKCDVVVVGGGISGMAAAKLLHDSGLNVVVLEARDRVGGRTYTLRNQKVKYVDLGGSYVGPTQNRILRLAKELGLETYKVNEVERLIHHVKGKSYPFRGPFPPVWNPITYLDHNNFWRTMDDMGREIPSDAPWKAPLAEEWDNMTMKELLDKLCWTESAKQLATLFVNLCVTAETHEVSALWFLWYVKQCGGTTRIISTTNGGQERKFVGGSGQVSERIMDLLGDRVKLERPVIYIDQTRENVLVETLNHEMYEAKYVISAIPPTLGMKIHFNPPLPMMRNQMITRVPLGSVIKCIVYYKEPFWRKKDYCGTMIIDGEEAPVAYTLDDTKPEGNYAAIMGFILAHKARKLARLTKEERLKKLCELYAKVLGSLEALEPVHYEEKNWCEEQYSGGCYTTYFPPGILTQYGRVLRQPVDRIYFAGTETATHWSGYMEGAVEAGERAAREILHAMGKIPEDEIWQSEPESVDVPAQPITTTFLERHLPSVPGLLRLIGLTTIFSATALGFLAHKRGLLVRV

Experiments:
Assay type in all cases: biochemical
recombinant human MAO-A [1] = target: T1, recombinant human MAO-A (Homo sapiens, UniProt P21397); assay: Enzyme kinetics and mechanism of inhibition with MAO-A
recombinant human MAO-B = recombinant human MAO-B (Homo sapiens, UniProt P27338); assay: Fluorometric kynuramine deamination assay, MAO-B inhibition
recombinant human MAO-A [2] = target: T1, recombinant human MAO-A; assay: Fluorometric kynuramine deamination assay, MAO-A inhibition

A Ki (recombinant human MAO-A [1]) of 121 ± 6.1 nM, an IC50 (recombinant human MAO-B) of 140 ± 20 nM and an IC50 (recombinant human MAO-A [2]) of 270 ± 30 nM were found for `NNCCc1ccccc1` [Phenelzine, phenelzine, reference compound] in this work.
